Drawing on patent publication US12448375B2, “Kinase inhibitors for the treatment of neurodegenerative diseases” (Ohio State Innovation Foundation, priority 2019, dated 2025), this text covers IC50 for 1 compound.

By UniProt entry, the sequences of proteins in these tests, tags left out.
UniProt P53779, whole entry: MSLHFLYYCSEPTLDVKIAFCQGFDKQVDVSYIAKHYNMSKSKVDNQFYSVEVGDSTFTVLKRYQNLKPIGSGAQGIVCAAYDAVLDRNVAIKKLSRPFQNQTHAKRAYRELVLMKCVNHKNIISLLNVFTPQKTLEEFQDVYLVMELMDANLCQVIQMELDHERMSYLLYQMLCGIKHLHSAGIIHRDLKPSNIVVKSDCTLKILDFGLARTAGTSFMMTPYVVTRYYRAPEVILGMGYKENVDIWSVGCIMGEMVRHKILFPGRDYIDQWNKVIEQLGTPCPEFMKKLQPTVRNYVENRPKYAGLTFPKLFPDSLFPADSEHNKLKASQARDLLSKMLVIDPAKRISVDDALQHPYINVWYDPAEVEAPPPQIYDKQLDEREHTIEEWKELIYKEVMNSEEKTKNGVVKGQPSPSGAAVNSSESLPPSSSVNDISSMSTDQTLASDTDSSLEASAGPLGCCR
UniProt P45983, whole entry: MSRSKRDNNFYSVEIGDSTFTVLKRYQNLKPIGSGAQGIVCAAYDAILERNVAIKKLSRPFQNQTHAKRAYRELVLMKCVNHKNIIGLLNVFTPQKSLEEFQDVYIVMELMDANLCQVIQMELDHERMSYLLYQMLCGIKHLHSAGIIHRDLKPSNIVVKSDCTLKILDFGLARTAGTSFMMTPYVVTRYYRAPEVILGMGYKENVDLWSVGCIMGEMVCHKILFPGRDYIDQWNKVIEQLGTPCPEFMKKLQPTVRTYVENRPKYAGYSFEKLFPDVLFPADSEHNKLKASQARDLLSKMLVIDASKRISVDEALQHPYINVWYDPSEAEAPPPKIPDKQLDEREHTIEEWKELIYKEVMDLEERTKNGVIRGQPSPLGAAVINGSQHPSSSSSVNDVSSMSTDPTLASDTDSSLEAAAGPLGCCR
UniProt Q16539, whole entry: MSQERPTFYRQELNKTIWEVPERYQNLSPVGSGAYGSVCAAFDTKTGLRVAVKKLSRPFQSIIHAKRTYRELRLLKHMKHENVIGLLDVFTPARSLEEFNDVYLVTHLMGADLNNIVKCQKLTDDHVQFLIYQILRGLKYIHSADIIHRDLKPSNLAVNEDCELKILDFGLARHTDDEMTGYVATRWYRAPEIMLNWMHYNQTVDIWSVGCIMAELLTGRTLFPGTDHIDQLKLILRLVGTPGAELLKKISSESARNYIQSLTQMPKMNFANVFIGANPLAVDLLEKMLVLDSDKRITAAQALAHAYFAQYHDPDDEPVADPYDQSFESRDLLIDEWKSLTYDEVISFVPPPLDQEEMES

One assay concerns the target JNK3 (Homo sapiens, UniProt P53779). As to the kind of experiment: HotSpot Kinase Assay (Reaction Biology Corp.), anti-JNK3 activity. Particulars: read-out: JNK3; HotSpot radiometric assay, 33P-ATP.
A further assay deals with JNK1 (Homo sapiens, UniProt P45983). As to the kind of experiment: HotSpot Kinase Assay, JNK1. The following applies: read-out: JNK1; HotSpot radiometric assay, 33P-ATP.
For a further assay, the target named is p38a (Homo sapiens, UniProt Q16539). As to the kind of experiment: HotSpot Kinase Assay, P38a. Particulars: read-out: p38a; HotSpot radiometric assay, 33P-ATP.

Consider `CNC(=O)c1cc(-n2ncc3cc(Nc4ccccc4Cl)c(OC)cc32)cs1`, for which the IC50 at JNK3 is under 200 nM; at JNK1, over 1000 nM; at p38a, 200 to 1000 nM.
